Assay [1] addresses Beta-lactamase (Enterobacter cloacae) (UniProt P05364). The experiment in a line: The kinetic constant(kcat) value as spectrophotometrically by using Enterobacter cloacae P99 beta-lactamase (ECIbL) enzyme as catalyst. The gist of the method: (§1)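 Spectrophotometric hydrolysis at 23 °C in PBS with 12.5 μg/mL BSA. EClbL was used at 0.1 μg/mL; BCbL and ECbL at 1.0 μg/mL. […] Initial velocities were linear over 1 min. Km and kcat came from direct linear plots, as the mean of ≥3 independent runs.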

Protein sequences, listed by entry. Tags and fused reporters are not part of them.
UniProt P05364, whole entry, looked up: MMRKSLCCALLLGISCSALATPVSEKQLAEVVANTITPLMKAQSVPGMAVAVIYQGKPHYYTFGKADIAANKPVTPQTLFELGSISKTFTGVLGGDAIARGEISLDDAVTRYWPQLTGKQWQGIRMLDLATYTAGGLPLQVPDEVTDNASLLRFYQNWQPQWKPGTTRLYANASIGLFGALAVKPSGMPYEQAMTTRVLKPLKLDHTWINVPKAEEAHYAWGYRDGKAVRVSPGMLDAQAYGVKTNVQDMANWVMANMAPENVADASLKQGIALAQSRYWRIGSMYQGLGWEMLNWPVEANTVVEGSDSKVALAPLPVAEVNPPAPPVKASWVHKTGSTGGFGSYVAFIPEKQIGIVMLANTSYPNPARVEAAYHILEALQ
UniProt P62593, whole entry: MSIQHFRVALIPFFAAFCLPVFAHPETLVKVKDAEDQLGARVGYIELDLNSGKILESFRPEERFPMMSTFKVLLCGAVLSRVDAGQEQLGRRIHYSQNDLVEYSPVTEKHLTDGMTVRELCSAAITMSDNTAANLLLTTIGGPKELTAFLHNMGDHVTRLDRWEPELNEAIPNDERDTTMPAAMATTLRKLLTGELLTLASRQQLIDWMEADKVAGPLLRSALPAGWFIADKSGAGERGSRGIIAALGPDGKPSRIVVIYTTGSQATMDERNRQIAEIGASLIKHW

For assay [2], the target named is Beta-lactamase TEM (Escherichia coli) (UniProt P62593). As to the kind of experiment: The kinetic constant(kcat) value as spectrophotometrically by using Escherichia coli TEM-1 beta-lactamase (ECbL) enzyme as catalyst. A digest of the protocol:
as §1

Assay [3] deals with T1, Metallo-beta-lactamase type 2 (Bacillus cereus) (UniProt P14488).
T1 sequence (whole entry): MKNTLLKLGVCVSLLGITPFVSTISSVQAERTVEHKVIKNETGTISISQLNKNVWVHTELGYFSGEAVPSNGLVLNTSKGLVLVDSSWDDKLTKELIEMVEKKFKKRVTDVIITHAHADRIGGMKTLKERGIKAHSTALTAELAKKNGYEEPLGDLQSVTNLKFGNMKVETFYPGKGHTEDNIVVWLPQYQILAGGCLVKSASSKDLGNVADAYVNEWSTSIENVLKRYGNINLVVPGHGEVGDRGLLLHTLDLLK
As to the kind of experiment: The kinetic constant(kcat) value as spectrophotometrically by using Bacillus cereus beta-lactamase (BCbL) enzyme as catalyst. The gist of the method:
as §1

As for `COc1cccc2c1C(=O)c1c(O)c3c(c(O)c1C2=O)C[C@@](O)(C(=O)CO)C[C@@H]3OC1CC(NC(=O)OCC2=C(C(=O)O)N3C(=O)[C@@H](NC(=O)Cc4ccccc4)[C@H]3SC2)C(O)C(C)O1` (stereo partly drawn), the k cat in assay [1] amounted to 280 s⁻¹; in assay [2], 8.4 s⁻¹; in assay [3] it was 30 s⁻¹.

The record behind these values is ChEMBL document CHEMBL1128301, “Cephalosporin derivatives of doxorubicin as prodrugs for activation by monoclonal antibody-beta-lactamase conjugates” (J Med Chem, 1995).
